Reference: patent US6790854B2, “Diphenylalkylamine derivatives useful as opioid receptor agonists” (Meiji Seika Kaisha, Ltd., priority 2000, dated 2004)

Target: opioid δ receptor (Rattus norvegicus, UniProt P33533)
Experiment: Binding affinity for opioid δ receptor ([3H]-Naltrindole displacement, rat forebrain membrane fraction)
Conditions: read-out: Binding affinity Ki, [3H]-Naltrindole 1 nM, 25° C., 90 minutes, Ki calculated from IC50 by the Cheng-Prusoff equation

| SMILES | Ki |
| --- | --- |
| CCN(CC)C(=O)c1ccc(C(CCN2CCC(n3c(=O)[nH]c4ccccc43)CC2)c2ccc3c(c2)OCO3)cc1 (centres unmarked) | 1540 nM |
| CCN(CC)C(=O)c1ccc(C(CCN2CCC(n3c(CO)nc4ccccc43)CC2)c2cccc(OC)c2)cc1 (centres unmarked) | 345 nM |
| CCN(CC)C(=O)c1ccc(C(CCN2CCC(n3c(=O)[nH]c4ccccc43)CC2)c2cccc(F)c2)cc1 (centres unmarked) | 821 nM |
| CCN(CC)C(=O)c1ccc(C(CCN2CCC3(CC2)C(=O)NCN3c2ccccc2)c2cccc(O)c2)cc1 (centres unmarked) | 171 nM |
| COc1cccc(C(CCN2CCC(n3c(=O)[nH]c4ccccc43)CC2)c2ccc(C(=O)N3CCCCC3)cc2)c1 (centres unmarked) | 2760 nM |
